Values of other authors in patent US7067251B2 (priority 2000, dated 2006).

Test system: C3H10T½ cells
Conditions: cited from earlier work

Question: Which “Induction in Sox9 expression” value does the source give for BMP-2 here?
Answer: 4 fold
